In assay [1] the target is PI3Kα (Homo sapiens, UniProt P42336, H1047R). Nature of the assay: ADP-Glo IC50 assay. Type of assay: biochemical. The settings on record: read-out: ADP-Glo IC50; class symbols; key not given.
The subject of assay [2] is MCF10A. Nature of the assay: MCF10A IC50 assay. It is filed as cell-based. The settings on record: read-out: MCF 10A IC50; class symbols; key not given. An outline of the steps: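 MCF10A cells overexpressing hotspot PIK3CA mutations were seeded at 5,000 per well in supplemented DMEM/F12 and adhered overnight (37 °C, 5% CO₂). Compounds were added acoustically as 12-dose 1:3 series, in duplicate, for 2 hours. Cells were lysed 60 min, then incubated 4 hours at room temperature with CisBio phospho-AKT (Ser473) HTRF antibodies and read on an Envision 2105. IC₅₀ for AKT phosphorylation came from Genedata software and was reported as binned categories.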

Protein sequences, listed by entry. Tags and fused reporters are not part of them.
UniProt P42336, whole entry H1047R: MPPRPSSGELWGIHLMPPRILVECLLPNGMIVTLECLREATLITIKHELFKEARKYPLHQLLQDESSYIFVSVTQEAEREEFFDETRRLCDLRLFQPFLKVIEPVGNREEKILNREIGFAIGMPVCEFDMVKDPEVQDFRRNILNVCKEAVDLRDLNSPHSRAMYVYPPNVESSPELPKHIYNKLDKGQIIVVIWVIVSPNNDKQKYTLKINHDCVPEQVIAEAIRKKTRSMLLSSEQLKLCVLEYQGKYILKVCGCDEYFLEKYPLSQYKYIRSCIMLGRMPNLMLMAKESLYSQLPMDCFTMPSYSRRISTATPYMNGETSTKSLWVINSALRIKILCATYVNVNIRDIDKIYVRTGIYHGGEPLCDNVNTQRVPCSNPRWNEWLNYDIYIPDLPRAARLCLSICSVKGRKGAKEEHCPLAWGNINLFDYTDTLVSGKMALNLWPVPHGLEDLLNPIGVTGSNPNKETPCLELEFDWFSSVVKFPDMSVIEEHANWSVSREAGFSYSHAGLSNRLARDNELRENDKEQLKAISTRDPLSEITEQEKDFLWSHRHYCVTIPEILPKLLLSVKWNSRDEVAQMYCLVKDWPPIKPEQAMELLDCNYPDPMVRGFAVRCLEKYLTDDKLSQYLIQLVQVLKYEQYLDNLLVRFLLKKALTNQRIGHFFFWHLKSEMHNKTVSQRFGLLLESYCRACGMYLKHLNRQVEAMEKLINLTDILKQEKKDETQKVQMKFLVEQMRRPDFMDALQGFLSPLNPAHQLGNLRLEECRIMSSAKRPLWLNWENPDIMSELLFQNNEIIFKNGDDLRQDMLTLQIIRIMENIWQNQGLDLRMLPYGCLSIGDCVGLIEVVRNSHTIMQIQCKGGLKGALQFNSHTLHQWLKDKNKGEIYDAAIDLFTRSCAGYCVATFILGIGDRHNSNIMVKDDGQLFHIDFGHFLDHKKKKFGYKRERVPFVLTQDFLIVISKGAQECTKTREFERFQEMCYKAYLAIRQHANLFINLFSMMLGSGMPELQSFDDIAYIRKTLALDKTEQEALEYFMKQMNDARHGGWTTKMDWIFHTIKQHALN
UniProt P27986, whole entry partner: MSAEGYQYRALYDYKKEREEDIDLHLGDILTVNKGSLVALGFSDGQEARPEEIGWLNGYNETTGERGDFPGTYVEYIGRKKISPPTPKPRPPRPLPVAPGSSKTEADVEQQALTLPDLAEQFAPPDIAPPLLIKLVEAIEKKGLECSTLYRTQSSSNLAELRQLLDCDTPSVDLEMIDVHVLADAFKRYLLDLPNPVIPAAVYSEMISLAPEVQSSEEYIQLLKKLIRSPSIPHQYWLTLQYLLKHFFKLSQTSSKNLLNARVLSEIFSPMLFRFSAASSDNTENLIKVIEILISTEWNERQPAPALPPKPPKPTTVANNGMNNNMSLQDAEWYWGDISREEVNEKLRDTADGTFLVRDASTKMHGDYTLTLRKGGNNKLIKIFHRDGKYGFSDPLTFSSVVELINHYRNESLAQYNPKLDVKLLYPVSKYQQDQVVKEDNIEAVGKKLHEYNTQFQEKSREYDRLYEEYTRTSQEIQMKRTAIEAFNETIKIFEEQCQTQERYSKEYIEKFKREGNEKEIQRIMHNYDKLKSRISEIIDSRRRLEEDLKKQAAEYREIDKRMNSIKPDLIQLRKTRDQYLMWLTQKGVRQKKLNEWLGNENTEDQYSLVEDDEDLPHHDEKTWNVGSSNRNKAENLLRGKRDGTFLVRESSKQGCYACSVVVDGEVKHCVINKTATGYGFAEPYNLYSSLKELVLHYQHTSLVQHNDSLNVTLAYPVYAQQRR

What is called IC50 is the concentration needed to halve the response being measured. `Cc1ncsc1-c1ccc([C@H](C)NC(=O)[C@@H]2C[C@@H](O)CN2C(=O)[C@@H](NC(=O)CCCCCCCCCNC(=O)c2cnc(Nc3cc(F)ccc3Cl)c(NC(=O)c3csc4ccccc34)c2)C(C)(C)C)cc1`: the 50% inhibitory concentration (IC50) in assay [1] is 100 to 500 nM; in assay [2] it was 10000 to 36000 nM.
Consider `Cc1cc([C@@H](C)Nc2ccccc2C(=O)O)c2oc(N3CCN(C(=O)CCNc4cccc5c4C(=O)N(C4CCC(=O)NC4=O)C5=O)CC3)cc(=O)c2c1` (some centres unmarked) [Example I-135], for which, in assay [1], the IC50 lay in the range of 100 to 500 nM.
As for `Cc1ccccc1Nc1ncc(C(=O)NCCOCCOCCOCCOCCOCCC(=O)NCc2ccc3c(c2)CN(C2CCC(=O)NC2=O)C3=O)cc1NC(=O)c1csc2ccccc12` (centres unmarked), the IC50 in assay [1] lay in the range of 1000 to 10000 nM.
Same read-out and setting: with `Cc1ccccc1Nc1ncc(C(=O)NCCCCCCCCNc2cccc3c2C(=O)N(C2CCC(=O)NC2=O)C3=O)cc1NC(=O)c1csc2ccccc12` (centres unmarked) the figure was 100 to 500 nM; with `Cc1ccccc1Nc1ncc(C(=O)NCCCC(=O)NCc2ccc3c(c2)CN(C2CCC(=O)NC2=O)C3=O)cc1NC(=O)c1csc2ccccc12` (centres unmarked), 100 to 500 nM; with `Cc1ccccc1Nc1ncc(C(=O)NCCCCCCNc2ccc3c(c2)C(=O)N(C2CCC(=O)NC2=O)C3=O)cc1NC(=O)c1csc2ccccc12` (centres unmarked), 100 to 500 nM.
The same measure, in the same setting: with `Cc1ccccc1Nc1ncc(C(=O)NCCOCCOCCOCCOCC(=O)N[C@H](C(=O)N2C[C@H](O)C[C@H]2C(=O)NCc2ccc(-c3scnc3C)cc2)C(C)(C)C)cc1NC(=O)c1csc2ccccc12` the figure was 1000 to 10000 nM.

The values are drawn from patent US20260131009A1, “BIFUNCTIONAL PI3K-ALPHA INHIBITORS AND USES THEREOF” (Relay Therapeutics, Inc., priority 2021, published 2026).
